Results published in ChEMBL document CHEMBL4304749, “Covalent Inhibitors of Protein-Protein Interactions Targeting Lysine, Tyrosine, or Histidine Residues” (J Med Chem, 2019).

Protein sequences, listed by entry. Tags and fused reporters are not part of them.
UniProt P98170, whole entry: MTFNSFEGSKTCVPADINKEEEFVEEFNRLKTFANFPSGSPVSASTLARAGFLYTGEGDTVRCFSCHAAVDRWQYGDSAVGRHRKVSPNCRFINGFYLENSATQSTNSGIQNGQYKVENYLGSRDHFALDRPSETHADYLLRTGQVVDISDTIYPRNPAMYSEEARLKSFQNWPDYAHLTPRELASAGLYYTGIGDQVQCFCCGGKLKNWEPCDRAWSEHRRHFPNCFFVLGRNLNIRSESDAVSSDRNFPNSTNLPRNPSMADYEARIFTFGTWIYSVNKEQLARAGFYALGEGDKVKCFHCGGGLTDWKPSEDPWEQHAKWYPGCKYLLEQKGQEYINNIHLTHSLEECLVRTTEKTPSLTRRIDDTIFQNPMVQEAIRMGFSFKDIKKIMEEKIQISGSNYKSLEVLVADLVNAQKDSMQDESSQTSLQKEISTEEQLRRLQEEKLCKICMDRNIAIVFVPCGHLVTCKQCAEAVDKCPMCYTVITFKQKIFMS

What was measured:
[1] = target: T1, E3 ubiquitin-protein ligase XIAP (Homo sapiens, UniProt P98170)
[2] = target: T1, E3 ubiquitin-protein ligase XIAP; remark: listed apart in the source
[3] = target: T1, E3 ubiquitin-protein ligase XIAP; remark: listed apart in the source

## CC(C)[C@H](NC(=O)[C@H](C)N)C(=O)N1CCC[C@H]1C(=O)N[C@@H](Cc1ccccc1)C(=O)O
[1]
  IC50: 108 nM
[2]
  IC50: 56 nM
[3]
  IC50: 64 nM
